Data on 71 molecules can be found in US20260384394A1, “(HETERO)ARYL-CARBONYL-HETEROBICYCLIC COMPOUNDS AS INHIBITORS OF PMS2 FOR CANCER AND DEGENERATIVE ILLNESSES” (published 2026).

Sequences of proteins named here, by UniProt entry; tags and fusion partners are left off. Residues count along the entry.
UniProt P54278, 1-365 limits assumed: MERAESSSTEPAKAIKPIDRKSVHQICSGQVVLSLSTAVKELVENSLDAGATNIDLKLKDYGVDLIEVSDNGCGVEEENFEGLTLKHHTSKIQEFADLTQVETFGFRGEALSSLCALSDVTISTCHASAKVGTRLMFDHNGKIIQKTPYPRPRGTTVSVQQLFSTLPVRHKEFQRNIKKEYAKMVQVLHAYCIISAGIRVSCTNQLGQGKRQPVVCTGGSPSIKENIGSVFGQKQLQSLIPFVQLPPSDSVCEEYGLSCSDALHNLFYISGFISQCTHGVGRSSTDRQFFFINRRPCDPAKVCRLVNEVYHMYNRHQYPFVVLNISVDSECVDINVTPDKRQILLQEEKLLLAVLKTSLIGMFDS

By IC50 is commonly meant the point on the concentration scale where inhibition reaches its midpoint.

This assay concerns the target recombinant N-terminal PMS2 (residues 1-365) (Homo sapiens, UniProt P54278). Kind of assay: Fluorescence Polarisation Assay for PMS2 (displacement of fluorescent probe compound). To be noted: read-out: PMS2 IC50, 10 nM N-terminal PMS2, 5 nM probe compound, pH 7.5, room temperature, 30 min pre-incubation then 1 hour. The method, then: Fluorescence Polarisation Assay for PMS2
Test compounds, as 10 mM DMSO stocks, were dispensed into a Black Fluotrac 200 384 well medium binding plate (Greiner Bio-One, item number 781076) using a Labcyte Echo acoustic liquid handler. For single point screening, test compounds were added to wells in columns 1-22 whilst DMSO was added to wells in columns 23 and 24 in order to normalise the plate. For potency determination, serial dilutions of test compounds were added to wells in columns 3-22 and DMSO volume was normalised across the plate.
20 μL of a 2× solution (20 nM) of recombinant N-terminal PMS2 (residues 1-365) in assay buffer (25 mM HEPES, pH 7.5, 250 mM NaCl, 10 mM MgCl2, 0.01% Triton X-100, 5 mM Dithiothreitol) was added to all wells in columns 2-23 for potency determination or columns 1-23 for single point screening. 20 μL assay buffer was added to all wells in columns 1 and 24 (column 24 only for single point screening) using a MultiDrop Combi (ThermoFisher). Plates were centrifuged for 1 minute at 250×g and were incubated at room temperature for 30 minutes prior to the addition of 20 μL of 2×(20 nM) of 5-((5-(4-((2-(2,4-dihydroxy-5-isopropylbenzoyl)isoindolin5-yl)methyl)piperazin-1-yl)pentyl)carbamoyl)-2-(6-(dimethylamino)-3-(dimethyliminio)-3H-xanthen-9-yl)benzoate (referred to hereinafter as “probe compound”) in assay buffer (prepared from a 100 μM DMSO stock) with a MultiDrop Combi (ThermoFisher). The final concentration of N-terminal PMS2 was 10 nM and the final concentration of probe compound was 5 nM.
Compound plates were centrifuged for 1 minute at 250×g for 1 minute and were incubated at room temperature for 1 hour before being read on a PheraStar FSX (fitted with 384-well aperture spoon and 540 590 590 FP optic module). The gain and focus were adjusted before each plate was read so that the polarisation of a no enzyme control (column 24) was equal to 35 mP. Data were normalised against the no inhibitor controls (column 23) and no enzyme controls (column 24).
A general note: Polarisation of emitted light reports the rotation of a fluorescent probe.

For `COc1ccc(C(=O)N2Cc3cccc(NC(=O)/C=C/CN(C)C)c3C2)c(O)c1`, the IC50 was greater than 1 µM.
The value for `Cc1c[nH]c2cc(O)c(C(=O)N3Cc4cccc(N(C)C(=O)/C=C/CN(C)C)c4C3)cc12` was 0.1 to 1 µM; that for `CN(C)C/C=C/C(=O)Nc1cccc2c1CN(C(=O)c1cc(Cl)c(O)cc1O)C2` was less than 0.1 µM; that for `CN(C)C/C=C/C(=O)Nc1cccc2c1CN(C(=O)c1cc(C(F)(F)F)c(O)cc1O)C2` was less than 0.1 µM.
The figure for `Cc1ccc2c(c1N(C)C(=O)/C=C/CN(C)C)CN(C(=O)c1c(O)cc(O)c(C)c1C)C2` is less than 0.1 µM; for `C=CC(=O)N(C)c1cc2c(cc1OCCN(C)C)CCN(C(=O)c1cc(C(C)C)c(OC)cc1O)C2` it is less than 0.1 µM; for `C=CC(=O)N(C)c1ccc2c(c1)CN(C(=O)c1cc(C(C)(C)C)c(OC)cc1O)CC2` it is 0.1 to 1 µM.
The figure for `Cc1cc(C(=O)N2Cc3cccc(N(C)C(=O)/C=C/CN(C)C)c3C2)ccc1O` is greater than 1 µM; for `COc1nc2c(cc1N(C)C(=O)/C=C/CN(C)C)CN(C(=O)c1ccc(O)c(C(C)C)c1)CC2` it is 0.1 to 1 µM.
For the molecule `COc1cc(O)c(C(=O)N2Cc3cccc(N(C)C(=O)/C=C/CN(C)C)c3C2)cc1C(C)(C)C`, the IC50 is greater than 1 µM.
The figure for `CCN(C(=O)/C=C/CN(C)C)c1cccc2c1CN(C(=O)c1c(O)cc(O)c(Cl)c1C)C2` is less than 0.1 µM; for `Cc1c(Cl)ccc(O)c1C(=O)N1CCc2ccc(N(C)C(=O)/C=C/CN(C)C)cc2C1` it is greater than 1 µM; for `C=CC(=O)N(C)c1cccc2c1CN(C(=O)c1c(O)cc(O)c(Cl)c1F)C2` it is less than 0.1 µM.
The value for `C/C=C/C(=O)N(C)c1ccc2c(c1)CN(C(=O)c1c(O)cc(OC)c(Cl)c1C)CC2` was greater than 1 µM; that for `CN(C)C/C=C/C(=O)Nc1cccc2c1CN(C(=O)c1cc(Br)c(O)cc1O)C2` was less than 0.1 µM; that for `CN(C)C/C=C/C(=O)N(C)c1cccc2c1CN(C(=O)c1cc(C(C)(C)C)c(O)cc1F)C2` was greater than 1 µM.
The value for `C=CC(=O)N(C)c1ccc2c(c1)CN(C(=O)c1cc(C(C)C)c(OC)cc1O)CC2` was 0.1 to 1 µM.
As for `C=CC(=O)N(C)c1cccc2c1CN(C(=O)c1c(O)cc(OC)c(Cl)c1C)C2`, the IC50 was 0.1 to 1 µM.
The value for `COc1cc(O)c(C(=O)N2Cc3ccc(Cl)c(N(C)C(=O)/C=C/CN(C)C)c3C2)cc1C(C)C` was 0.1 to 1 µM.
The value for `C=CC(=O)N(C)c1nc2c(cc1C)CCN(C(=O)c1cc(C(C)C)c(OC)cc1O)C2` was less than 0.1 µM.
The value for `C=CC(=O)N(CCOC)c1cccc2c1CN(C(=O)c1c(O)cc(O)c(C)c1C)C2` was less than 0.1 µM.
For the molecule `C=CC(=O)Nc1cnc2c(c1)CN(C(=O)c1c(O)cc(OC)c(Cl)c1C)CC2`, the IC50 is greater than 1 µM.
The value for `COc1cc(O)c(C(=O)N2CCc3ccc(N(C)C(=O)/C=C/CN(C)C)cc3C2)cc1C(C)(C)C` was 0.1 to 1 µM.
The value for `CCc1cc(C(=O)N2Cc3cccc(N(C)C(=O)/C=C/CN(C)C)c3C2)c(O)cc1OC` was greater than 1 µM; that for `C/C=C/C(=O)N(C)c1ccc2c(n1)CN(C(=O)c1c(O)cc(OC)c(Cl)c1C)CC2` was greater than 1 µM; that for `COc1cc(O)c(C(=O)N2Cc3ccc(C)c(N(C)C(=O)/C=C/CN(C)C)c3C2)cc1Cl` was greater than 1 µM.
As to `CN(C)C/C=C/C(=O)Nc1cccc2c1CN(C(=O)c1cc3cc[nH]c3cc1O)C2`, the IC50 lay in the range of 0.1 to 1 µM.
For `Cc1c(Cl)c(OC(F)F)cc(O)c1C(=O)N1Cc2cccc(N(C)C(=O)/C=C/CN(C)C)c2C1`, the IC50 lay in the range of 0.1 to 1 µM.
The figure for `Cc1cc(C(=O)N2Cc3cccc(N(CCc4ccncc4)C(=O)/C=C/CN(C)C)c3C2)c(O)cc1O` is less than 0.1 µM; for `CC(C)c1cc(C(=O)N2CCc3ccc(N(C)C(=O)/C=C/CN(C)C)cc3C2)c(O)cc1F` it is greater than 1 µM; for `CN(C)C/C=C/C(=O)N(C)c1ccc2c(c1)CN(C(=O)c1cc(C(C)(C)C)ccc1O)CC2` it is greater than 1 µM.
The figure for `C=CC(=O)N(CCC1CCN(C)C1)c1cccc2c1CN(C(=O)c1cc(C)c(O)cc1O)C2` (centres unmarked) is 0.1 to 1 µM; for `COC/C=C/C(=O)Nc1cccc2c1CN(C(=O)c1cc(C)c(O)cc1O)C2` it is 0.1 to 1 µM; for `C=CC(=O)N(C)c1nc2c(cc1C)CCN(C(=O)c1c(O)cc(OC)c(Cl)c1C)C2` it is less than 0.1 µM.
Take `CCN(C(=O)/C=C/CN(C)C)c1cccc2c1CN(C(=O)c1c(O)cc(O)c(Cl)c1F)C2`: the IC50 is less than 0.1 µM.
On to `C=CC(=O)N(C)c1cccc2c1CN(C(=O)c1c(O)cc(O)c(C)c1C)C2`, for which the IC50 is less than 0.1 µM.
The value for `CN(C)C/C=C/C(=O)N(C)c1cccc2c1CN(C(=O)c1c(O)cc(O)c(Cl)c1F)C2` was less than 0.1 µM; that for `C=CC(=O)Nc1cccc2c1CN(C(=O)c1cc(C)c(O)cc1O)C2` was 0.1 to 1 µM.
Consider `COc1cc(O)c(C(=O)N2Cc3cccc(N(C)C(=O)/C=C/CN(C)C)c3C2)cc1C(C)C`, for which the IC50 lay within 0.1 to 1 µM.
In the case of `CC(C)c1cc(C(=O)N2Cc3cccc(NC(=O)/C=C/CN(C)C)c3C2)c(O)cc1O`, the IC50 was less than 0.1 µM.
The figure for `CC(C)c1cc(C(=O)N2CCc3ccc(N(C)C(=O)/C=C/CN(C)C)cc3C2)c(O)cc1O` is less than 0.1 µM; for `CN(C)C/C=C/C(=O)Nc1cccc2c1CN(C(=O)c1ccccc1)C2` it is greater than 1 µM.
The figure for `CN(C)C/C=C/C(=O)Nc1cccc2c1CN(C(=O)c1c(O)cc(O)cc1C(F)(F)F)C2` is less than 0.1 µM; for `C=CC(=O)N(C)c1c(Cl)ccc2c1CN(C(=O)c1c(O)cc(OC)c(Cl)c1C)C2` it is greater than 1 µM.
For the molecule `C=CC(=O)N(C)c1ccc2c(c1)CN(C(=O)c1cc(C)c(O)cc1O)CC2`, the IC50 is less than 0.1 µM.
The figure for `C=CC(=O)N(C)c1ccc2c(c1)CN(C(=O)c1c(O)cc(OC)c(Cl)c1C)CC2` is less than 0.1 µM.
The figure for `COc1cc(O)c(C(=O)N2CCc3ccc(N(C)C(=O)/C=C/CN(C)C)cc3C2)c(C)c1Cl` is 0.1 to 1 µM.
For the molecule `Cc1cc(O)cc(O)c1C(=O)N1CCc2ccc(N(C)C(=O)/C=C/CN(C)C)cc2C1`, the IC50 is less than 0.1 µM.
`C=CC(=O)N(C)c1cccc2c1CN(C(=O)c1cc(C(C)(C)C)c(OC)cc1O)C2`: the half-inhibitory concentration (IC50) is greater than 1 µM.
The value for `C=CC(=O)N(C)c1cccc2c1CN(C(=O)c1c(O)c(CN)cc(C(C)(C)C)c1F)C2` was greater than 1 µM; that for `Cc1cc(C(=O)N2CCc3ccc(NC(=O)/C=C/CN(C)C)cc3C2)c(O)cc1O` was 0.1 to 1 µM; that for `C/C=C/C(=O)N(C)c1cnc2c(c1)CN(C(=O)c1c(O)cc(OC)c(Cl)c1C)CC2` was greater than 1 µM.
The figure for `Cc1c(C(=O)N2Cc3cccc(N(C)C(=O)/C=C/CN(C)C)c3C2)ccc(O)c1Cl` is 0.1 to 1 µM.
The figure for `CC(C)c1ccc(O)c(C(=O)N2Cc3cccc(N(C)C(=O)/C=C/CN(C)C)c3C2)c1` is greater than 1 µM; for `C=CC(=O)N(C)c1ccc2c(c1)CN(C(=O)c1c(O)cc(O)c(Cl)c1C)CC2` it is less than 0.1 µM; for `CC(C)c1cc(C(=O)N2Cc3cccc(N(C)C(=O)/C=C/CN(C)C)c3C2)c(O)cc1F` it is greater than 1 µM.
As to `Cc1c(Cl)ccc(O)c1C(=O)N1Cc2cccc(N(C)C(=O)/C=C/CN(C)C)c2C1`, the IC50 was greater than 1 µM.
The value for `Cc1cc(C(=O)N2Cc3ccc(Cl)c(N(C)C(=O)/C=C/CN(C)C)c3C2)c(O)cc1O` was less than 0.1 µM; that for `C=CC(=O)N(C)c1ccc2c(c1C)CN(C(=O)c1cc(C(C)C)c(OC)cc1O)CC2` was greater than 1 µM.
The value for `CN(C)C/C=C/C(=O)Nc1cccc2c1CN(C(=O)c1cc(F)c(O)cc1O)C2` was 0.1 to 1 µM.
The value for `Cc1cc(C(=O)N2Cc3cccc(NC(=O)/C=C/CN4CCC(F)(F)C4)c3C2)c(O)cc1O` was 0.1 to 1 µM; that for `Cc1cc(C(=O)N2Cc3cccc(N(CCc4cccnc4)C(=O)/C=C/CN(C)C)c3C2)c(O)cc1O` was less than 0.1 µM.
With `Cc1cc(O)ccc1C(=O)N1Cc2cccc(NC(=O)/C=C/CN(C)C)c2C1`, the IC50 was greater than 1 µM.
On to `COc1cc(O)c(C(=O)N2Cc3cccc(N(C)C(=O)/C=C/CN(C)C)c3C2)cc1Cl`, for which the IC50 was greater than 1 µM.
Take `CN(C)C/C=C/C(=O)N(C)c1c(Cl)ccc2c1CN(C(=O)c1cc(C(C)(C)C)c(O)cc1O)C2`: the 50% inhibitory concentration (IC50) was less than 0.1 µM.
`Cc1cc(C(=O)N2CCc3ccc(N(C)C(=O)/C=C/CN(C)C)cc3C2)c(O)cc1O`: the IC50 was less than 0.1 µM.
The value for `CCN(C(=O)/C=C/CN(C)C)c1cccc2c1CN(C(=O)c1cc(C)c(O)cc1O)C2` was less than 0.1 µM; that for `C=CC(=O)N(CC)c1cccc2c1CN(C(=O)c1c(O)cc(O)c(Cl)c1C)C2` was less than 0.1 µM.
The value for `C=CC(=O)N(C)c1cccc2c1CN(C(=O)c1cc(CC)c(OC)cc1O)C2` was greater than 1 µM; that for `COc1cc(O)c(C(=O)N2CCc3ncc(N(C)C(=O)/C=C/CN(C)C)cc3C2)cc1C(C)C` was greater than 1 µM.
Take `C=CC(=O)N(C)c1cccc2c1CN(C(=O)c1c(O)cc(OC)c(Cl)c1F)C2`: the IC50 is greater than 1 µM.
